The chains behind the UniProt entries cited, without tags or fusion partners. Where a name states a change or a piece, a line headed by the entry shows the natural chain unless it says otherwise.
UniProt Q9Y233: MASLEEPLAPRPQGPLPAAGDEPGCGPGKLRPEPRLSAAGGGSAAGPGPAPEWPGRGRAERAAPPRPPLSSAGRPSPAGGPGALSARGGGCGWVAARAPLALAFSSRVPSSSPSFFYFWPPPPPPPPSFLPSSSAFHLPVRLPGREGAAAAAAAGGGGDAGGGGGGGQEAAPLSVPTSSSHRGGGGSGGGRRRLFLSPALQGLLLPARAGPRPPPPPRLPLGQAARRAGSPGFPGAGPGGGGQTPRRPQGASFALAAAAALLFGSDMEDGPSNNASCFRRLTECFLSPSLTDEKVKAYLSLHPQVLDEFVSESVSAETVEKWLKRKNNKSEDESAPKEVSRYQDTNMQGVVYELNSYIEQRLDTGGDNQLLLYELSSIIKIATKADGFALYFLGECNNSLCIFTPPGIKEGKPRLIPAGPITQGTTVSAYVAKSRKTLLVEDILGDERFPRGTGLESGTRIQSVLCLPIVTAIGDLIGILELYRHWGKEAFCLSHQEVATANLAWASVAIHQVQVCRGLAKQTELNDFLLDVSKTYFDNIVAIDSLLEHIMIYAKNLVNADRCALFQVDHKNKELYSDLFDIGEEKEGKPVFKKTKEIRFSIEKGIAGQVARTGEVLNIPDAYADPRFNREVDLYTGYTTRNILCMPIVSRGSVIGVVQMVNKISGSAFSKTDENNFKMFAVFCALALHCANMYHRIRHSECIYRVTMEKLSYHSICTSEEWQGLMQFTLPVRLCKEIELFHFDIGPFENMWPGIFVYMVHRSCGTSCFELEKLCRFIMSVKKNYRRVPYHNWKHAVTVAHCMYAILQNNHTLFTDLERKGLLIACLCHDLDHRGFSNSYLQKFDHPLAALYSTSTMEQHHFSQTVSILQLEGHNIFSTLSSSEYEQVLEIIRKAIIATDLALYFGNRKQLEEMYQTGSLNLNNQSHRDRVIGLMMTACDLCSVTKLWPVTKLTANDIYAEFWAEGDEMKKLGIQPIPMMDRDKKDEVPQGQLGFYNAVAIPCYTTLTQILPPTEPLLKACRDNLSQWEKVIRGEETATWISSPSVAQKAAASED

According to ChEMBL document CHEMBL3639003, “Heteroaryloxycarbocyclyl compounds as PDE10 inhibitors” (2015):

Molecular target: cAMP and cAMP-inhibited cGMP 3',5'-cyclic phosphodiesterase 10A (Homo sapiens, UniProt Q9Y233)
Assay: IMAP TR-FRET Assay: Enzyme Activity. An IMAP TR-FRET assay was used to analyze the enzyme activity (Molecular Devices Corp., Sunnyvale Calif.). 5 uL, of serial diluted PDE10A (BPS Bioscience, San Diego, Calif.) or tissue homogenate was incubated with equal volumes of diluted fluorescein labeled cAMP or cGMP for 60 min in 384-well polystyrene assay plates (Corning, Corning, N.Y.) at room temperature. After incubation, the reaction was stopped by adding 60 uL, of diluted binding reagents and was incubated for 3 hours to overnight at room temperature. The plates were read on an Envision (Perkin Elmer, Waltham, Mass.) for time resolved fluorescence resonance energy transfer. The data were analyzed with GraphPad Prism (La Jolla, Calif.).Enzyme Inhibition. To check the inhibition profile, 5 uL, of serial diluted compounds were incubated with 5 uL, of diluted PDE10 enzyme (BPS Bioscience, San Diego, Calif.) or tissue homogenate in a 384-well polystyrene assay plate (Corning, Corning, N.Y.).

IC50: 2.74 nM
SMILES: CC(=O)c1ccc(-c2nccnc2O[C@H]2C[C@@H](Nc3nc4ccccc4s3)C2)cn1
